Laboratory results reported in patent US6849458 (dated 2005).

How the values were obtained:
[1] = biological target: human α-thrombin (human), P00734; assay: microplate thermal shift assay, 1,8-ANS fluorescence; Kd at 298 K estimated with equation (3), single ligand
[2] = biological target: human α-thrombin (human), P00734; assay: microplate thermal shift assay, 1,8-ANS fluorescence; Kd at Tm (329.52 K) calculated with equation (1), single ligand

Kd [1]: 23 nM | Kd [2]: 185 nM
Binder: DGDFEEIPEEYL (modifications not checked) [Hirugen (hirudin 53-64), P01050 53-64]
